# Reference: PubChem BioAssay AID602248 (The Scripps Research Institute Molecular Screening Center, 2012)
# “And” between values parts separate entries of the source, which are not always exact repeats. Equal entries are not always repeated. This is a selection; strong and weak results do not stand in their true shares. The source made the active and inactive calls. Rule as the data show it: active = activation above about 15%; inactive = the rest.
# Assay: counter-screen for M1 agonists: effect in parental CHO-K1 cells (AID 602248);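 also: untransfected CHO-K1 host cells lacking M1 receptor as counterscreen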
# Conditions: Fluo-8 calcium fluorescence, at 3 µM, active compounds read high, scaled to maximal ATP response, vehicle zero
row,SMILES,activation
1,O=C(O)C(=O)c1ccc(N(CCCl)CCCl)cc1,inactive: 0.86%
2,O=C(Nc1ccncc1[N+](=O)[O-])c1ccc([N+](=O)[O-])cc1[N+](=O)[O-],inactive: 0.92%
3,O=C(COc1ccccc1)OC1CN2CCC1CC2 (stereo not given),inactive: 1.05%
4,COC(=O)C1(C)COP(=O)(N2CCCC2)OC1 (stereo not given),inactive: -0.11%
5,COP1(=S)c2c(C)nn(CCC#N)c2N=C(c2ccc(F)cc2)N1C (stereo not given),inactive: 0.73%
6,CCC(C)N(CC(C)C)C(=S)SC(NC(C)=O)C(Cl)(Cl)Cl (stereo not given),inactive: 0.57%
7,CSc1ccc(Nc2c([N+](=O)[O-])cc([N+](=O)[O-])cc2[N+](=O)[O-])cc1,inactive: 11.1%
8,O=C(OC1CN2CCC1CC2)c1cccc([N+](=O)[O-])c1 (stereo not given),inactive: 2.36%
9,CCOC(=O)c1ccc(NC(=O)C(C)(CCl)SC)cc1 (stereo not given),inactive: 2.67%
10,COP(=O)(OC)N1CC1c1ccccc1 (stereo not given),inactive: 0.05%
11,Cc1cc(SC(NC(=O)c2ccccc2)C(Cl)(Cl)Cl)nc(C(C)C)n1 (stereo not given),inactive: 0.47%
12,O=C(O)C(O)c1ccc(N(CCCl)CCCl)cc1 (stereo not given),inactive: -0.39%
13,CCOC(=O)Nc1ccc([As](=O)(O)O)c(O)c1,inactive: 1.42%
14,C/C=C1/CC(C)C(C)(O)C(=O)OCC2CCN3CCC(OC1=O)C23 (stereo not given),inactive: 0.72%
15,CC1CCNP(=O)(N(CCCl)CCCl)O1 (stereo not given),inactive: 0.33%
16,Cc1cc(SC(NC=O)C(Cl)(Cl)Cl)ncn1 (stereo not given),inactive: 1.37%
17,O=P(Nc1ccccn1)(c1cccc2ccccc12)c1cccc2ccccc12,inactive: 1.86%
18,O=[N+]([O-])c1ccc(Nc2ccc(Oc3ccc([N+](=O)[O-])cc3[N+](=O)[O-])cc2)c([N+](=O)[O-])c1,inactive: 0.99%
19,CCOC(=O)Nc1cccc([As](=O)(O)O)c1,inactive: -0.15%
20,CC(Cc1ccc(O)cc1)NCC(O)c1cc(O)cc(O)c1 (stereo not given),inactive: -0.3%
21,Cc1ccc(OP(=O)(Nc2ccc([N+](=O)[O-])cn2)Oc2ccc(C)cc2)cc1,inactive: 0.85%
22,[N-]=[N+]=NC1CCCCC1NC(=O)c1cc([N+](=O)[O-])cc([N+](=O)[O-])c1 (stereo not given),inactive: 0.69%
23,Cc1ccc2nc3c(c(C)c2c1)CC(C(Cl)Cl)S3 (stereo not given),inactive: -1.12%
24,O=[N+]([O-])c1ccc(-c2cc([N+](=O)[O-])c(O)c([N+](=O)[O-])c2)cc1,inactive: 0.39%
25,O=[As](O)(c1ccc(O)cc1)c1ccccc1O,inactive: 1.62%

row,SMILES,activation
1,C[As](=O)(O)c1cccc(C(=O)O)c1,inactive: 10.6%
2,O=[N+]([O-])c1cc([N+](=O)[O-])c(-c2ccn[nH]2)s1,inactive: 0.27%
3,O=C(OC1CN2CCC1CC2)c1cccc2[nH]cnc12 (stereo not given),inactive: -0.26%
4,CCN(CC)C(=S)SC(NC=O)C(Cl)(Cl)Cl (stereo not given),inactive: -0.01%
5,CC(C)NC(=O)NP(=O)(Oc1ccccc1)Oc1ccccc1,inactive: -0.06%
6,ClCCSc1nnc(-c2cccnc2)o1,inactive: 0.06%
7,CC(C)c1ccc(OP(=O)(Nc2ccccn2)Oc2ccccc2F)cc1 (stereo not given),inactive: 0.12%
8,COC(=O)C1(C)COP(=O)(N2CCCCCC2)OC1 (stereo not given),inactive: 1.48%
9,O=P1(N(CCCl)CCCl)OCCCN1CCCl (stereo not given),inactive: 1.09%
10,O=P1(N(CCCl)CCCl)Nc2ccccc2N1,inactive: 0.05%
11,COc1cc(I)ccc1[As](=O)(O)O,inactive: 0.48%
12,COc1ccc2nc(NP(=O)(c3ccccc3)c3ccccc3)sc2c1,inactive: 2.04%
13,Cc1c2c(nc3ccccc13)SC(C(Cl)Cl)C2 (stereo not given),inactive: -0.25%
14,Cc1cc(=O)[nH]c(N[N+](=O)[O-])n1,inactive: 0.24%
15,O=C(OC1CN2CCC1CC2)C12CC3CC(CC(C3)C1)C2 (stereo not given),inactive: 0.28%
16,O=[N+]([O-])c1cc(Oc2ccc([N+](=O)[O-])cc2C(F)(F)F)cc([N+](=O)[O-])c1,inactive: 0.11%
17,COc1ccc(N/C(=N/P(=O)(N2CCOCC2)N2CCOCC2)N2CCOCC2)cc1,inactive: 0.88%
18,O=[As](O)(c1cccc(O)c1)c1cccc(O)c1,inactive: 0.54%
19,Cc1cccc(OCC(=O)OC2CN3CCC2CC3)c1 (stereo not given),inactive: 0.25%
20,O=C(OC1CN2CCC1CC2)c1ccc(Cl)cc1 (stereo not given),inactive: 0.43%
21,CS(=O)(=O)c1ccc(Cl)c(NC(=O)COC(=O)C(O)(c2ccccc2)c2ccccc2)c1,inactive: 8.99%
22,O=[As](O)(O)c1cccnc1,inactive: 0.92%
23,CCOP(=O)(Nc1cccc2ccccc12)OCC,inactive: 1.71%
24,COc1cc(C2NCCC3(OCCO3)C2(C)C)cc(OC)c1OC (stereo not given),inactive: -0.45%
25,Nc1cccc2c([As](=O)(O)O)cccc12,inactive: 8.52%

row,SMILES,activation
1,Cc1ccc(NCCc2c([N+](=O)[O-])cc([N+](=O)[O-])cc2[N+](=O)[O-])cc1,inactive: -0.74%
2,CCCOP(=S)(Nc1nc(N)cc(=O)[nH]1)OCCC,inactive: 1.02%
3,C[C@H]1C(=O)O[C@@H]2CCN3CC=C(COC(=O)[C@](C)(O)[C@]1(C)O)[C@H]23,inactive: 1.19%
4,O=C(O)COc1ccc([As](=O)(O)O)cc1[N+](=O)[O-],inactive: -0.78%
5,Nc1ccccc1[As](=O)(O)c1ccccc1,inactive: 0.69%
6,O=P(Nc1nccs1)(c1ccccc1)c1nc2ccccc2s1 (stereo not given),inactive: 0.92%
7,O=P(Nc1nccs1)(Oc1ccccc1)Oc1ccccc1,inactive: 0.55%
8,CCOP1(=S)c2c(C)nn(CCC#N)c2N=C(c2ccccc2F)N1C (stereo not given),inactive: 1.09%
9,CS(=O)(=O)c1cc([N+](=O)[O-])c2no[n+]([O-])c2c1,inactive: 0.25%
10,CCOP1(=S)c2c(C)nn(CCC#N)c2N=C(c2ccc(F)cc2)N1C (stereo not given),inactive: 0.29%
11,CN(C(=O)Cc1ccccc1)[C@@H]1CC[C@]2(CCCO2)C[C@H]1N1CCCC1,inactive: -0.05%
12,N#CCCN(C(=O)COC(=O)C(O)(c1ccccc1)c1ccccc1)c1ccc(F)cc1,inactive: 3.03%
13,CN(C(=O)Cc1ccc(Cl)c(Cl)c1)[C@H]1CC[C@@]2(CCCO2)C[C@@H]1N1CCCC1,inactive: 0.57%
14,CN(C)C(=O)c1cc([N+](=O)[O-])cc2c1-c1c(cc([N+](=O)[O-])cc1[N+](=O)[O-])C2=O,inactive: 1.54%
15,O=[N+]([O-])c1ccc2c(c1)nnn2O,inactive: 0.85%
16,NC(=O)Nc1ccc([As](=O)(O)O)cc1,inactive: 0.38%
17,COc1ccc(CC(C)NCC(O)c2ccc(O)c(NC=O)c2)cc1 (stereo not given),inactive: 0.22% and inactive: -0.06%
18,CCCC1OP(=O)(Nc2ccccc2)OCC1CC (stereo not given),inactive: 3.31%
19,O=C(/C=C/c1ccccc1)OC1CN2CCC1CC2 (stereo not given),inactive: 6.57%
20,Cc1ccc(C(=O)OC2CN3CCC2CC3)cc1 (stereo not given),inactive: 1.24%
21,CC1CCC(C(C)C)C(OP(=O)(Nc2ccccn2)c2ccccc2)C1 (stereo not given),inactive: 5.19%
22,Cc1nn(-c2ccccc2)c2c1P(=O)(N1CCOCC1)N(C)C(c1ccccc1)=N2 (stereo not given),inactive: 0.17%
23,Nc1cccc([As](=O)(O)c2ccccc2)c1,inactive: -0.05%
24,NS(=O)(=O)c1cccc(NC(=O)COC(=O)C(O)(c2ccccc2)c2ccccc2)c1,inactive: 0.52%
25,O=P1(Nc2ccc(Br)cn2)COc2ccccc2OC1,inactive: 1.87%

row,SMILES,activation
1,O=[As](O)(c1cccs1)c1cccs1,inactive: -0.53%
2,Cc1ccc(OCC(=O)OC2CN3CCC2CC3)cc1 (stereo not given),inactive: 1.51%
3,Cc1ccc(S(=O)(=O)N(CCCN)CCCc2c(C)nc(N)[nH]c2=O)cc1,inactive: 0.26%
4,O=P1(Nc2ncccn2)COc2ccccc2OC1,inactive: 0.52%
5,CC(C)(C)C(=O)NC(Sc1ncccn1)C(Cl)(Cl)Cl (stereo not given),inactive: 0.22%
6,Clc1n[nH]nc1-c1nn[nH][15n]1,inactive: 0.02%
7,O=P1(N(CCCl)CCCl)NCCC(C(F)(F)F)O1 (stereo not given),inactive: 0.35%
8,CCOP(=O)(NC(=NC(C)c1ccccc1)NC(C)c1ccccc1)OCC (stereo not given),inactive: -0.38%
9,CCC1=CC2Cc3nc4ccc(Cl)cc4c(N)c3C(C1)C2 (stereo not given),inactive: 2.09%
10,O=P1(Nc2ccccn2)COc2ccccc2OC1,inactive: -0.29%
11,CN(CCCl)Cc1cc(Cl)c(NC2=NCCN2)c(Cl)c1,inactive: 0.12%
12,CCOP(=O)(Nc1ccc(C)cn1)OCC,inactive: 1.96%
13,CN(C(=O)Cc1ccc(Cl)c(Cl)c1)[C@@H]1CCCC[C@H]1N1CCCC1,inactive: -0.02%
14,CC(C)/C=N\N=C(\N)N[N+](=O)[O-],inactive: 0.4%
15,CC1(CBr)Cn2c(nc3ccccc3c2=O)S1 (stereo not given),inactive: 4.71%
16,COc1ccccc1CNC(=O)COC(=O)C(O)(c1ccccc1)c1ccccc1,inactive: 0.36%
17,c1nnnn1CCn1cnnn1,inactive: 0.28%
18,O=P(Nc1nccs1)(c1ccccc1)c1ccccc1,inactive: 0.28%
19,CC(C)C(=O)NC(Sc1ccccc1)C(Cl)(Cl)Cl (stereo not given),inactive: -0.72%
20,COc1ccc(C[C@H](C)NC[C@@H](O)c2ccc(O)c(NC=O)c2)cc1,inactive: 0.06%
21,C[C@H]1OP(=O)(Oc2ccccc2)[C@H](O)[C@H](O)[C@H]1N=[N+]=[N-] (stereo not given in full),inactive: 0.26%
22,O=P(Nc1nc2ccccc2s1)(c1ccccc1)c1ccccc1,inactive: 1.45%
23,O=P(Nc1ccccn1)(c1ccc(Br)cc1)c1ccc(Br)cc1,inactive: -0.17%
24,Nc1ccc(CCCCOc2ccccc2)cc1,inactive: 2.11%
25,COc1ccc(N)c([N+](=O)[O-])c1[N+](=O)[O-],inactive: 0.77%
